# Binding of CDR-mutated scFvs to a peptide of the spike HR2 region

Reference: Li et al. 2023, doi:10.1038/s41467-023-39022-2. File: FLAb, binding data.

Target peptide (SARS-CoV-2 spike, HR2 region): PDVDLGDISGINAS

Ab-14 is the parent antibody, in scFv form: VH, then a 15-residue (Gly4Ser)3 linker, then VL. The light chain is unchanged in all variants.
VH: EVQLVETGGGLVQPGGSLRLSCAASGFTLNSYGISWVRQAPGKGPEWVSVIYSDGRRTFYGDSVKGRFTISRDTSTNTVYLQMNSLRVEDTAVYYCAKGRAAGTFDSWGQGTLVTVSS
VL: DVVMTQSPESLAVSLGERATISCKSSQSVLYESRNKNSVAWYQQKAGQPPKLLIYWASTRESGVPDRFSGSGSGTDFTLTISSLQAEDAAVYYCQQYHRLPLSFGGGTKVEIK

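The variants were designed computationally from a first round of random CDR variants and then made and measured. Their group label is 14H_GP_Gibbs (GP: Gaussian process model; Gibbs: Gibbs sampling; a sequence that several methods proposed may carry one label only). AlphaSeq pools MATa yeast showing the antibodies with MATalpha yeast showing the peptide. The frequency of each diploid, read from paired DNA barcodes, reflects how well the two displayed proteins bind. The ratio of observed to expected reads was calibrated, replicate by replicate, on BCL2-family standards whose Kd was known from biolayer interferometry. There are six technical replicates.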

Each variant is given by its three heavy chain CDRs, as the data file delimits them; those of the parent are GFTLNSYGIS, VIYSDGRRTFYGDSVK, GRAAGTFDS.
Affinities are written as log10 Kd with Kd in nM; a lower number is a better binder.
Averages over replicates are reported, and they cover detected replicates only.
A pair that was not seen in that replicate is written "ND"; this usually means weak binding, but a binder can also be missed.

CDR-H1	CDR-H2	CDR-H3	log10 Kd, replicates	mean, log10 nM	signal with controls
GFELNEYGIS	VIYSDGRRTFYADDVK	GRTAGTFDS	0.15 / -0.15 / 0.06 / -0.17 / -0.19 / 0.16	-0.02	0/18
GFTLNSYGIS	VIYSDGRRTFYGDDVK	GQTAGTFDS	1.21 / 0.58 / 1.04 / 0.87 / 0.70 / 1.00	0.90	0/18
GFTLESYGIS	VIYSDGRRTFYADSVK	GKAAGTFDV	1.47 / 1.23 / 1.00 / 1.30 / 1.03 / 0.73	1.12	0/18
GFMLNSYGIS	VIYSDGRRTFYSDSVK	GQTAGTFDS	0.46 / 0.62 / -0.18 / -0.11 / ND / ND	0.20	0/18
GFDLNSYGIS	VIYSDGRRTFYVDSVK	GEAAGTFDT	ND / -0.10 / ND / ND / -0.32 / ND	-0.21	0/18
GFTLNSYGIS	VIYSDGRRTFYGDSVK	GQTAGTFDQ	ND / ND / 0.02 / 1.08 / 0.19 / -1.01	0.07	0/18
MFELNSYGIS	VIYSDGRRTFYGDSVK	GQEAGTFDS	ND / ND / 1.90 / ND / ND / ND	1.90	1/18 (1.25)
KFTLNSYGIS	VIYSDGKRTFYADSVK	GRQAGTFDS	ND / 1.78 / 1.53 / 0.98 / 1.14 / 1.41	1.37	0/18
GFGLNEYGIS	VIYSDGRRTFYGWSVK	GRTAGTFDS	ND / ND / 1.25 / ND / ND / ND	1.25	0/18
GFELNNYGIS	VIYSDGRRTFYGDQVK	GRTAGTFDS	0.64 / -0.16 / -0.06 / 0.18 / 0.58 / 0.12	0.22	0/18
GFELNSYGIS	VIYSDGRRTAYGDSVK	GRQAGTFDT	0.58 / 0.23 / 0.63 / 0.18 / 0.53 / 1.45	0.60	0/18
GFSLNSYGIS	VIYSDGRRTFYGDSVK	GMLAGTFDS	0.51 / -0.08 / -0.15 / 0.24 / 0.38 / 0.25	0.19	1/18 (1.51)
GFELNEYGIS	VIYSDGRRTFYDDSVK	GQAAGTFDS	1.50 / 0.24 / 1.18 / 0.80 / 1.39 / 0.54	0.94	0/18
GFTLDSYGIS	VIYSDGRRTFYADAVK	GRAAGTFDK	1.32 / 1.28 / 1.27 / 1.02 / 0.95 / 0.85	1.12	0/18
GFSLNEYGIS	VIYSDGRRTFYGESVK	GKAAGTFDS	0.61 / 0.30 / 0.37 / 0.38 / 0.44 / 0.56	0.44	0/18
GFNLNSYGIS	VIYSDGRRTFYADPVK	GNAAGTFDN	ND / 1.35 / 0.82 / ND / 1.52 / 0.53	1.05	1/18 (2.31)
GFDLNSYGIS	VIYSDGRRTFYADSVK	GKEAGTFDA	-0.52 / -0.06 / -0.30 / -0.64 / 0.67 / -0.21	-0.18	0/18
GFSLNQYGIS	VIYSDGRRTFYVDSVK	GRTAGTFDS	1.85 / 0.31 / 0.18 / 0.42 / 0.44 / 0.53	0.62	1/18 (3.43)
GFTLNSYGIS	VIYSDGKRTFYADAVK	GRTAGTFWS	ND / ND / ND / ND / ND / ND	ND	0/18
GFGLNSYGIS	VIYSDGRRTFYIDSVK	GQIAGTFDS	ND / ND / ND / ND / ND / ND	ND	0/18
GFWLNEYGIS	VIYSDGRRTFYQDSVK	GRTAGTFDS	1.31 / 0.02 / 0.35 / 1.57 / 0.82 / 0.43	0.75	1/18 (1.83)
KFNLNNYGIS	VIYSDGRRTFYGDSVK	GRNAGTFDS	ND / ND / ND / ND / ND / ND	ND	0/18
GFDLNSYGIS	VIYSDGRRTFYGDQVK	GRTAGTFDE	0.18 / 0.04 / 0.39 / 0.67 / 1.23 / 0.57	0.51	0/18
SFDLNSYGIS	VIYSDGRRTFYSDSVK	GRQAGTFDS	0.51 / 0.39 / 0.60 / 0.62 / 0.52 / 0.69	0.55	0/18
MFTLNSYGIS	VIYSDGRRTFYSDSVK	GQEAGTFDS	ND / ND / ND / ND / 2.23 / 1.62	1.92	0/18
GFTLNSYGIS	VIYSDGKRTFYGDNVK	GREAGTFDS	0.55 / 0.23 / 0.26 / 0.35 / 0.27 / 0.06	0.29	0/18
KFNLNSYGIS	VIYSDGRRTFYIDSVK	GRLAGTFDS	ND / ND / ND / ND / ND / ND	ND	0/18
GFDLNSYGIS	VIYSDGKRTFYIDSVK	GQAAGTFDV	0.37 / 0.38 / -0.02 / -0.14 / 0.37 / 0.47	0.24	0/18
GFDLNSYGIS	VIYSDGRRTFYKDSVK	GREAGTFDV	-0.22 / -0.23 / -0.26 / -0.35 / -0.55 / -0.35	-0.33	2/18 (1.33)
GFSLNEYGIS	VIYSDGRRTFYCDAVK	GRTAGTFDS	1.30 / 0.95 / 2.62 / 1.19 / 1.32 / 1.25	1.44	0/18
KFQLNDYGIS	VIYSDGRRTFYGDSVK	GRQAGTFDS	ND / 2.68 / 2.37 / ND / 2.88 / ND	2.65	0/18
YFQLNEYGIS	VIYSDGRRTFYGDSVK	GRNAGTFDS	ND / ND / ND / ND / ND / ND	ND	0/18
GFQLNDYGIS	VIYSDGRRTFYGDSVK	GRTAGTFDM	ND / ND / 1.60 / 1.97 / 1.07 / 1.33	1.49	0/18
GFELNRYGIS	VIYSDGRRTFYGDSVK	GQTAGTFDS	0.61 / 0.99 / 0.49 / 0.26 / 0.65 / 0.41	0.57	1/18 (1.85)
GFKLNSYGIS	VIYSDGRRTFYKDSVK	GQAAGTFDL	ND / ND / 2.68 / ND / 4.34 / ND	3.51	0/18
PFDLNSYGIS	VIYSDGRRTFYIDSVK	GRQAGTFDS	0.74 / 1.48 / ND / ND / 1.51 / ND	1.24	0/18
GFELNSYGIS	VIYSDGLRTFYTDSVK	GRTAGTFDS	0.22 / 0.80 / 0.33 / 0.29 / 0.70 / 0.48	0.47	0/18
GFSLNWYGIS	VIYSDGRRTFYGDQVK	GRTAGTFDS	ND / ND / ND / ND / 2.36 / ND	2.36	0/18
GKSLNSYGIS	VIYSDGRRTFYADAVK	GRTAGTFDS	ND / ND / ND / ND / 2.29 / ND	2.29	0/18
GFTLNSYGIS	VIYSDGMRTFYVDSVK	GRTAGTFDS	2.84 / ND / ND / ND / ND / ND	2.84	0/18
GFDLNAYGIS	VIYSDGRRTFYVDSVK	GQAAGTFDS	1.49 / 0.37 / 0.57 / 0.93 / 0.98 / 0.94	0.88	0/18
GFHLNSYGIS	VIYSDGMRTFYVDSVK	GRQAGTFDS	ND / ND / ND / 1.58 / 1.74 / 2.37	1.90	0/18
GFELNSYGIS	VIYSDGRRTMYGDSVK	GRTAGTFDS	0.63 / 0.34 / 0.42 / 0.25 / -0.01 / 0.03	0.28	0/18
GFQLNSYGIS	VIYSDGRRTAYGDQVK	GRAAGTFDS	ND / ND / ND / ND / ND / ND	ND	0/18
GFSLNMYGIS	VIYSDGRRTFYGDSVK	GREAGTFDT	ND / -0.37 / 0.40 / 0.51 / 0.61 / 0.78	0.39	0/18
GFDLNSYGIS	VIYSDGKRTFYVDSVK	GRVAGTFDS	0.16 / 0.05 / -0.17 / -0.45 / -0.39 / -0.14	-0.16	0/18
GFDLNSYGIS	VIYSDGRRTFYGDSVK	GMTAGTFDA	0.18 / 0.11 / -0.15 / 0.00 / -0.15 / 0.04	0.00	0/18

Nonspecific signal, from three strains lacking the peptide, appeared in 1% of pairings of all heavy chain designs, centred on 2.08 (5% of these signals below 0.84); values are not corrected for it. The control count says in how many pairings with the empty strains this scFv gave a signal, with their mean in brackets.
The range of this assay differs from that of the first round, and the authors advise against merging the two.
The authors' rule: three or more of the six replicates give a measured affinity, fewer mean a poor binder.